Test system: cyclic AMP formation in bovine parathyroid cells
Format: cell-based

## NCCCNCCCCNCCCN [Spermine, spermine]
  isoproterenol-induced cyclic AMP: depressed isoproterenol-induced increases
